Reference: patent publication US20220088102A1, “CROTON LECHLERI COMPOSITIONS AND THEIR USE IN THE TREATMENT OF CYSTIC FIBROSIS” (priority 2020, published 2022)

Assays:
[1] = Log P analysis (partition coefficient, water and n-Octanol)
[2] = In vitro Permeation Test (IVPT), Franz diffusion cell, Strat-M membranes
[3] = component of AB-101, 100%, Batch 0
[4] = component of AB-101, 100%, Batch 1
[5] = component of AB-101, 100%, Batch 2
[6] = component of AB-101, 100%, Batch X
[7] = component of AB-101 Lyophilized & Resuspended, Batch 0
[8] = component of AB-101 Lyophilized & Resuspended, Batch 1
[9] = component of AB-101 Lyophilized & Resuspended, Batch 2
[10] = component of AB-101 Lyophilized & Resuspended, Batch X

Substance	LogP [1, 3]	LogP [1, 4]	LogP [1, 5]	LogP [1, 6]	LogP [1, 7]	LogP [1, 8]	LogP [1, 9]	LogP [1, 10]	Flux (J) ([2]; component permeating from AB-101 100% Lot 1) [ug/cm^2/hr]	Flux (J) ([2]; component permeating from AB-101 100% Lot X) [ug/cm^2/hr]
epicatechin	−0.09	−0.02	0.13	0.07	0.02	0.02	−0.17	0.09	–	–
catechin	0.27	0.29	0.59	−0.14	0.39	0.23	0.07	−0.13	8.82	1.53
